Results: PMC3793267 (Biomarkers, 2008)

Amino acid sequences for entries named in this document (tags omitted). Residues count along the entry.
UniProt P22303, 32-614: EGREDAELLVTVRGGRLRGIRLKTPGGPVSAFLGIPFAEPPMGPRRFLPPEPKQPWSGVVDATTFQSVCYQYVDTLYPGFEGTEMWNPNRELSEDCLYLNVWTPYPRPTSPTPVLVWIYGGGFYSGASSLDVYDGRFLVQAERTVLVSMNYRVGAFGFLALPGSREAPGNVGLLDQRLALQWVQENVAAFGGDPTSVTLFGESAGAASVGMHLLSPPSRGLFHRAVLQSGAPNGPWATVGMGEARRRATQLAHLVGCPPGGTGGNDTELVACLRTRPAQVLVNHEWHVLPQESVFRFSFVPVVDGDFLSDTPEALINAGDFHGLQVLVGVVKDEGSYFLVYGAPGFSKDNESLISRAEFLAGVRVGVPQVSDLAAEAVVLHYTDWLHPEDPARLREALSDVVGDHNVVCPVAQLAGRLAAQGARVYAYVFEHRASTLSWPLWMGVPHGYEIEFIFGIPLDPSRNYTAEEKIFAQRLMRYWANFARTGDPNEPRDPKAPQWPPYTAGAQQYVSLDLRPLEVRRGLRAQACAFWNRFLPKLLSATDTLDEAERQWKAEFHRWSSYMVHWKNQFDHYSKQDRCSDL

Target: recombinant human AChE (Homo sapiens, UniProt P22303)
Assay: Inhibition of recombinant AChE by pesticide-oxons
Assay type: biochemical

CCOP(=O)(OCC)OC(=CCl)c1ccc(Cl)cc1Cl [Chlorfenvinphos (oxon), 2-chloro-1-(2,4-dichlorophenyl)vinyl diethyl phosphate]
IC50: ~1500 nM
